Assay results taken from US20120277239A1, “Compositions and Methods for Improving Night Vision” (ALPHA SYNERGY DEVELOPMENT INC., priority 2011, published 2012).

Experiments:
[1] = test system: pupil size; conditions: brimonidine 0.025%, pH 7.0 q am; Day 2.1 (follows 20 days of consecutive use)
Experimental: The pupil size was measured at the baseline and then 10 minutes and 3 hours after instillation for 3 consecutive weeks.

[2] = test system: dark-adapted pupil diameter; conditions: brimonidine at 0.10-0.20%; after several weeks of daily use; cited from earlier work
[3] = topically applied brimonidine at 0.15%; cited from earlier work

Brc1c(N=C2NCCN2)ccc2nccnc12.O=C(O)C(O)C(O)C(=O)O [brimonidine, 5-bromo-6-(2-imidazolin-2-ylamino)quinoxaline D-tartrate]
Tachyphylaxis [1]: No tachyphylaxis was noted
patients having total tachyphylaxis and loss of effect [2]: ~100%
patients experiencing drowsiness or headaches [3]: At least 1%
patients experiencing rebound hyperemia (redness) [3]: about 25%
